How the values were obtained:
Type in all cases: cell-based
[1] = target: T1, human AGTR1 (Homo sapiens, UniProt P30556); experiment: AGTR1 signaling, IP-One Gq kit (IP1 accumulation), HEK-AGTR1 FAP cells; conditions: for IP1 accumulation: HEK-AGTR1 FAP cells, 90 minutes
T1 construct: host or cells: HEK293 (HEK-AGTR1 FAP cells)
Description: Activated AGTR1 couples to the Gαq subunit of heterotrimeric G proteins, which activates the phospholipase C (PLC) and subsequently inositol 1,4,5-trisphosphate (IP3) signaling cascade. AGTR1 signaling was measured using an IP-One Gq kit (cisbio #62IPAPEB). The kit detects the accumulation of inositol monophosphate (IP1), a stable downstream metabolite of IP3 induced by activation of a phospholipase C (PLC) cascade.
An additional control compound, AngII, which consists of the peptide motif […], was also tested. […] AGTR1 activation was measured using the IP-One Gq kit.

[2] = test system: human MALAT1 RNA; experiment: MALAT1 RNA reduction in HEK-AGTR1 FAP cells, free uptake, 48 hours; conditions: compared to parent unconjugated Compound No. 556089, 48 hours
Description: (§1) HEK293 cells expressing FAP tagged human AGTR1 (HEK-AGTR1 FAP cells from Spectragenetics) were treated with Compound Nos. 556089, 1229761, and 1229762, described herein above, by free uptake at the concentrations detailed in Table 4 for 48 hours. At the end of the treatment period, total RNA was isolated from the cells and MALAT1 RNA levels were measured by quantitative real-time PCR. Human MALAT1 primer probe set RTS2737 (forward sequence AAGAGGCGGCGGAAGGT (SEQ ID NO: 2); reverse sequence […] (SEQ ID NO: 3); probe sequence […] (SEQ ID NO: 4)) was used to measure RNA levels. MALAT1 RNA levels were normalized according to total RNA content, as measured by RIBOGREEN®. Reduction of MALAT1 RNA is presented Table 4 below as percent MALAT1 RNA amount relative to untreated control (UTC) cells. The half maximal inhibitory concentration (IC50) of each modified oligonucleotide was calculated using a non-linear fit [inhibitor] vs. response-variable slope (three parameters) formula in GraphPad Prism 7.01.

[3] = test system: human MALAT1 RNA; experiment: MALAT1 RNA reduction in HEK-AGTR1 FAP cells, free uptake, 24 hours
Description: as §1, with “Table 3” for “Table 4”, “for 24” for “for 48”, “real-time PC&.” for “real-time PCR.”, “vs. response—variable” for “vs. response-variable”, “slope (four” for “slope (three”

[4] = in comparison to the unconjugated parent compound 556089

Substance	IP1 accumulation ([1]; 0.0256 nM) [nM]	IP1 accumulation ([1]; 0.128 nM) [nM]	IP1 accumulation ([1]; 0.64 nM) [nM]	IP1 accumulation ([1]; 3.2 nM) [nM]	IP1 accumulation ([1]; 16 nM) [nM]	IP1 accumulation ([1]; 80 nM) [nM]	IP1 accumulation ([1]; 400 nM) [nM]	IP1 accumulation ([1]; 2000 nM) [nM]	AGTR1 activation in words ([1]; compared to 1229761)	AGTR1 activation in words [1, 4]	reduction of target RNA in words [2]	reduction of target RNA in words ([3]; compared to parent unconjugated Compound No. 556089, 24 hours)	MALAT (% control) ([3]; 37 nM, 24 hours, relative to untreated control cells)
Compound No. 1229762: Extended Angiotensin II peptide [N6-(2-azidoacetyl)-K]PPPAGSSPGDRVYIHPF conjugated via linker to 5′-end of MALAT1 modified oligonucleotide TCAGCATTCTAATAGCAGC	721	967	1292	2514	5558	13794	16811	17550	enhanced activation	show activation of the receptor	significantly greater reduction of target RNA	significantly greater reduction of target RNA	–
Compound No. 1229761: Angiotensin II peptide [N6-(2-azidoacetyl)-K]DRVYIHPF conjugated via linker to 5′-end of MALAT1 modified oligonucleotide TCAGCATTCTAATAGCAGC	647	688	775	1248	3101	8151	11368	13100	–	show activation of the receptor	–	–	125

Source: US20220243210A1, “ANGIOTENSIN II TYPE 1 RECEPTOR TARGETED OLIGONUCLEOTIDES AND USES THEREOF” (Ionis Pharmaceuticals, Inc., priority 2019, published 2022)
